# Reference: paper doi:10.1101/2025.10.30.685530 (bioRxiv, 2025)
# Biological target: the molecule itself
# Assay: cryo-EM structure
protein,measurement,value
"CXCR7 (atypical chemokine receptor 3), full-length construct with N-terminal FLAG-tag (receptor, free cysteines alkylated with iodoacetamide) MDLHLFDYSEPGNFSDISWPCNSSDCIVVDTVMCPNMPNKSVLLYTLSFIYIFIFVIGMIANSVVVWVNIQAKTTGYDTHCYILNLAIADLWVVLTIPVWVVSLVQHNQWPMGELTCKVTHLIFSINLFGSIFFLTCMSVDRYLSITYFTNTPSSRKKMVRRVVCILVWLLAFCVSLPDTYYLKTVTSASNNETYCRSFYPEHSIKEWLIGMELVSVVLGFAVPFSIIAVFYFLLARAISASSDQEKHSSRKIIFSYVVVFLVCWLPYHVAVLLDIFSILHYIPFTCRLEHALFTALHVTQCLSLVHCCVNPVLYSFINRNYRYELMKAFIFKYSAKTGLTKLIDASRVSETEYSALEQSTK",stoichiometry N,2
